The target of the assay is TLN1 PTB (Homo sapiens, UniProt Q9Y490). It counts as binding.

The chains behind the UniProt entries cited, without tags or fusion partners. Residues count along the entry.
UniProt Q9Y490, 309-401: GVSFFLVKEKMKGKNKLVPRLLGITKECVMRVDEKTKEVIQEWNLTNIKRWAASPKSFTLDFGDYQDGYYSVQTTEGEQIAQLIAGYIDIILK

In the case of “TDERSWVYSPLHYS(averaged) S9Y (TDERSWVYYPLHYS)”, the “DMS-derived PSSM value, averaged over the two overlapping peptides” value turned out to be 0.01193.

For “TDERSWVYSPLHYS(averaged) S14A (TDERSWVYSPLHYA)”, the “DMS-derived PSSM value, averaged over the two overlapping peptides” value is 0.07928.

In the case of “TDERSWVYSPLHYS(averaged) S14D (TDERSWVYSPLHYD)”, the “DMS-derived PSSM value, averaged over the two overlapping peptides” value was found to be 0.05615.

Consider “TDERSWVYSPLHYS(averaged) S14E (TDERSWVYSPLHYE)”, for which the “DMS-derived PSSM value, averaged over the two overlapping peptides” value is recorded as 0.02604.

With “TDERSWVYSPLHYS(averaged) S14F (TDERSWVYSPLHYF)”, the “DMS-derived PSSM value, averaged over the two overlapping peptides” value was found to be 0.02637.

In the case of “TDERSWVYSPLHYS(averaged) S14G (TDERSWVYSPLHYG)”, the “DMS-derived PSSM value, averaged over the two overlapping peptides” value stood at 0.08.

For the substance “TDERSWVYSPLHYS(averaged) S14H (TDERSWVYSPLHYH)”, the “DMS-derived PSSM value, averaged over the two overlapping peptides” value came out at 0.05333.

On to “TDERSWVYSPLHYS(averaged) S14I (TDERSWVYSPLHYI)”, for which the “DMS-derived PSSM value, averaged over the two overlapping peptides” value came to 0.0932.

With “TDERSWVYSPLHYS(averaged) S14K (TDERSWVYSPLHYK)”, the “DMS-derived PSSM value, averaged over the two overlapping peptides” value was 0.005913.

For “TDERSWVYSPLHYS(averaged) S14L (TDERSWVYSPLHYL)”, the “DMS-derived PSSM value, averaged over the two overlapping peptides” value is on record as 0.01979.

In the case of “TDERSWVYSPLHYS(averaged) S14M (TDERSWVYSPLHYM)”, the “DMS-derived PSSM value, averaged over the two overlapping peptides” value stood at 0.04111.

Turning to “TDERSWVYSPLHYS(averaged) S14N (TDERSWVYSPLHYN)”, the “DMS-derived PSSM value, averaged over the two overlapping peptides” value is listed as 0.02528.

As to “TDERSWVYSPLHYS(averaged) S14P (TDERSWVYSPLHYP)”, the “DMS-derived PSSM value, averaged over the two overlapping peptides” value is on record as 0.0181.

Turning to “TDERSWVYSPLHYS(averaged) S14Q (TDERSWVYSPLHYQ)”, the “DMS-derived PSSM value, averaged over the two overlapping peptides” value is recorded as 0.01267.

Take “TDERSWVYSPLHYS(averaged) S14R (TDERSWVYSPLHYR)”: the “DMS-derived PSSM value, averaged over the two overlapping peptides” value was found to be 0.01172.

Take TDERSWVYSPLHYS(averaged) S14S: the “DMS-derived PSSM value, averaged over the two overlapping peptides” value was 0.06152.

“TDERSWVYSPLHYS(averaged) S14T (TDERSWVYSPLHYT)”: the “DMS-derived PSSM value, averaged over the two overlapping peptides” value is on record as 0.1228.

As to “TDERSWVYSPLHYS(averaged) S14V (TDERSWVYSPLHYV)”, the “DMS-derived PSSM value, averaged over the two overlapping peptides” value amounted to 0.1749.

For “TDERSWVYSPLHYS(averaged) S14W (TDERSWVYSPLHYW)”, the “DMS-derived PSSM value, averaged over the two overlapping peptides” value is 0.06383.

On to “TDERSWVYSPLHYS(averaged) S14Y (TDERSWVYSPLHYY)”, for which the “DMS-derived PSSM value, averaged over the two overlapping peptides” value is recorded as 0.02795.

Take “TDERSWVYSPLHYS(averaged) T1A (ADERSWVYSPLHYS)”: the “DMS-derived PSSM value, averaged over the two overlapping peptides” value stood at 0.05626.

In the case of “TDERSWVYSPLHYS(averaged) T1D (DDERSWVYSPLHYS)”, the “DMS-derived PSSM value, averaged over the two overlapping peptides” value is reported as 0.03384.

Regarding “TDERSWVYSPLHYS(averaged) T1E (EDERSWVYSPLHYS)”, the “DMS-derived PSSM value, averaged over the two overlapping peptides” value is 0.1596.

For the substance “TDERSWVYSPLHYS(averaged) T1F (FDERSWVYSPLHYS)”, the “DMS-derived PSSM value, averaged over the two overlapping peptides” value was determined as 0.02588.

Turning to “TDERSWVYSPLHYS(averaged) T1G (GDERSWVYSPLHYS)”, the “DMS-derived PSSM value, averaged over the two overlapping peptides” value worked out at 0.04566.

With “TDERSWVYSPLHYS(averaged) T1H (HDERSWVYSPLHYS)”, the “DMS-derived PSSM value, averaged over the two overlapping peptides” value came to 0.0316.

With “TDERSWVYSPLHYS(averaged) T1I (IDERSWVYSPLHYS)”, the “DMS-derived PSSM value, averaged over the two overlapping peptides” value is 0.01704.

Take “TDERSWVYSPLHYS(averaged) T1K (KDERSWVYSPLHYS)”: the “DMS-derived PSSM value, averaged over the two overlapping peptides” value came out at 0.01554.

As for “TDERSWVYSPLHYS(averaged) T1L (LDERSWVYSPLHYS)”, the “DMS-derived PSSM value, averaged over the two overlapping peptides” value was determined as 0.1268.

In the case of “TDERSWVYSPLHYS(averaged) T1M (MDERSWVYSPLHYS)”, the “DMS-derived PSSM value, averaged over the two overlapping peptides” value turned out to be 0.006995.

Regarding “TDERSWVYSPLHYS(averaged) T1N (NDERSWVYSPLHYS)”, the “DMS-derived PSSM value, averaged over the two overlapping peptides” value is given as 0.01133.

With “TDERSWVYSPLHYS(averaged) T1P (PDERSWVYSPLHYS)”, the “DMS-derived PSSM value, averaged over the two overlapping peptides” value was 0.03344.

As to “TDERSWVYSPLHYS(averaged) T1Q (QDERSWVYSPLHYS)”, the “DMS-derived PSSM value, averaged over the two overlapping peptides” value turned out to be 0.05185.

As for “TDERSWVYSPLHYS(averaged) T1R (RDERSWVYSPLHYS)”, the “DMS-derived PSSM value, averaged over the two overlapping peptides” value was 0.05322.

For “TDERSWVYSPLHYS(averaged) T1S (SDERSWVYSPLHYS)”, the “DMS-derived PSSM value, averaged over the two overlapping peptides” value was found to be 0.05373.

With TDERSWVYSPLHYS(averaged) T1T, the “DMS-derived PSSM value, averaged over the two overlapping peptides” value was 0.1158.

Regarding “TDERSWVYSPLHYS(averaged) T1V (VDERSWVYSPLHYS)”, the “DMS-derived PSSM value, averaged over the two overlapping peptides” value was 0.01914.

As to “TDERSWVYSPLHYS(averaged) T1W (WDERSWVYSPLHYS)”, the “DMS-derived PSSM value, averaged over the two overlapping peptides” value is on record as 0.05997.

With “TDERSWVYSPLHYS(averaged) T1Y (YDERSWVYSPLHYS)”, the “DMS-derived PSSM value, averaged over the two overlapping peptides” value is on record as 0.0823.

On to “TDERSWVYSPLHYS(averaged) V7A (TDERSWAYSPLHYS)”, for which the “DMS-derived PSSM value, averaged over the two overlapping peptides” value amounted to 0.1872.

For the substance “TDERSWVYSPLHYS(averaged) V7D (TDERSWDYSPLHYS)”, the “DMS-derived PSSM value, averaged over the two overlapping peptides” value was determined as 0.01732.

As for “TDERSWVYSPLHYS(averaged) V7E (TDERSWEYSPLHYS)”, the “DMS-derived PSSM value, averaged over the two overlapping peptides” value is 0.03883.

With “TDERSWVYSPLHYS(averaged) V7F (TDERSWFYSPLHYS)”, the “DMS-derived PSSM value, averaged over the two overlapping peptides” value is 0.007422.

As to “TDERSWVYSPLHYS(averaged) V7G (TDERSWGYSPLHYS)”, the “DMS-derived PSSM value, averaged over the two overlapping peptides” value amounted to 0.008985.

Regarding “TDERSWVYSPLHYS(averaged) V7H (TDERSWHYSPLHYS)”, the “DMS-derived PSSM value, averaged over the two overlapping peptides” value is 0.01065.

For “TDERSWVYSPLHYS(averaged) V7I (TDERSWIYSPLHYS)”, the “DMS-derived PSSM value, averaged over the two overlapping peptides” value was determined as 0.004511.

For “TDERSWVYSPLHYS(averaged) V7K (TDERSWKYSPLHYS)”, the “DMS-derived PSSM value, averaged over the two overlapping peptides” value came to 0.04004.

Take “TDERSWVYSPLHYS(averaged) V7L (TDERSWLYSPLHYS)”: the “DMS-derived PSSM value, averaged over the two overlapping peptides” value is listed as 0.03993.

As to “TDERSWVYSPLHYS(averaged) V7M (TDERSWMYSPLHYS)”, the “DMS-derived PSSM value, averaged over the two overlapping peptides” value was found to be 0.02199.

Regarding “TDERSWVYSPLHYS(averaged) V7N (TDERSWNYSPLHYS)”, the “DMS-derived PSSM value, averaged over the two overlapping peptides” value is reported as 0.3735.

For the substance “TDERSWVYSPLHYS(averaged) V7P (TDERSWPYSPLHYS)”, the “DMS-derived PSSM value, averaged over the two overlapping peptides” value is reported as 0.0001309.

For the substance “TDERSWVYSPLHYS(averaged) V7Q (TDERSWQYSPLHYS)”, the “DMS-derived PSSM value, averaged over the two overlapping peptides” value stood at 0.01435.

Consider “TDERSWVYSPLHYS(averaged) V7R (TDERSWRYSPLHYS)”, for which the “DMS-derived PSSM value, averaged over the two overlapping peptides” value is on record as 0.03163.

Take “TDERSWVYSPLHYS(averaged) V7S (TDERSWSYSPLHYS)”: the “DMS-derived PSSM value, averaged over the two overlapping peptides” value was 0.01626.

For “TDERSWVYSPLHYS(averaged) V7T (TDERSWTYSPLHYS)”, the “DMS-derived PSSM value, averaged over the two overlapping peptides” value turned out to be 0.05985.

Take TDERSWVYSPLHYS(averaged) V7V: the “DMS-derived PSSM value, averaged over the two overlapping peptides” value came to 0.04353.

On to “TDERSWVYSPLHYS(averaged) V7W (TDERSWWYSPLHYS)”, for which the “DMS-derived PSSM value, averaged over the two overlapping peptides” value came to 0.04074.

As to “TDERSWVYSPLHYS(averaged) V7Y (TDERSWYYSPLHYS)”, the “DMS-derived PSSM value, averaged over the two overlapping peptides” value is 0.04319.

As for “TDERSWVYSPLHYS(averaged) W6A (TDERSAVYSPLHYS)”, the “DMS-derived PSSM value, averaged over the two overlapping peptides” value was found to be 0.02329.

Turning to “TDERSWVYSPLHYS(averaged) W6D (TDERSDVYSPLHYS)”, the “DMS-derived PSSM value, averaged over the two overlapping peptides” value is given as 0.

In the case of “TDERSWVYSPLHYS(averaged) W6E (TDERSEVYSPLHYS)”, the “DMS-derived PSSM value, averaged over the two overlapping peptides” value is listed as 0.002222.

“TDERSWVYSPLHYS(averaged) W6F (TDERSFVYSPLHYS)”: the “DMS-derived PSSM value, averaged over the two overlapping peptides” value was 0.1658.

Turning to “TDERSWVYSPLHYS(averaged) W6G (TDERSGVYSPLHYS)”, the “DMS-derived PSSM value, averaged over the two overlapping peptides” value is given as 0.001993.

Turning to “TDERSWVYSPLHYS(averaged) W6H (TDERSHVYSPLHYS)”, the “DMS-derived PSSM value, averaged over the two overlapping peptides” value was found to be 0.

Regarding “TDERSWVYSPLHYS(averaged) W6I (TDERSIVYSPLHYS)”, the “DMS-derived PSSM value, averaged over the two overlapping peptides” value was found to be 0.007259.

With “TDERSWVYSPLHYS(averaged) W6K (TDERSKVYSPLHYS)”, the “DMS-derived PSSM value, averaged over the two overlapping peptides” value is listed as 0.003135.

Consider “TDERSWVYSPLHYS(averaged) W6L (TDERSLVYSPLHYS)”, for which the “DMS-derived PSSM value, averaged over the two overlapping peptides” value worked out at 0.001423.

With “TDERSWVYSPLHYS(averaged) W6M (TDERSMVYSPLHYS)”, the “DMS-derived PSSM value, averaged over the two overlapping peptides” value is 0.

For the substance “TDERSWVYSPLHYS(averaged) W6N (TDERSNVYSPLHYS)”, the “DMS-derived PSSM value, averaged over the two overlapping peptides” value is 0.006381.

For “TDERSWVYSPLHYS(averaged) W6P (TDERSPVYSPLHYS)”, the “DMS-derived PSSM value, averaged over the two overlapping peptides” value was 0.03116.

As to “TDERSWVYSPLHYS(averaged) W6Q (TDERSQVYSPLHYS)”, the “DMS-derived PSSM value, averaged over the two overlapping peptides” value is given as 0.03535.

On to “TDERSWVYSPLHYS(averaged) W6R (TDERSRVYSPLHYS)”, for which the “DMS-derived PSSM value, averaged over the two overlapping peptides” value is recorded as 0.008236.

For the substance “TDERSWVYSPLHYS(averaged) W6S (TDERSSVYSPLHYS)”, the “DMS-derived PSSM value, averaged over the two overlapping peptides” value turned out to be 0.

With “TDERSWVYSPLHYS(averaged) W6T (TDERSTVYSPLHYS)”, the “DMS-derived PSSM value, averaged over the two overlapping peptides” value was 0.002222.

As for “TDERSWVYSPLHYS(averaged) W6V (TDERSVVYSPLHYS)”, the “DMS-derived PSSM value, averaged over the two overlapping peptides” value stood at 0.008677.
